Amino acid sequences for entries named in this document (tags omitted). A change or cut given only in a name is not applied to a line headed by its entry.
UniProt P23458: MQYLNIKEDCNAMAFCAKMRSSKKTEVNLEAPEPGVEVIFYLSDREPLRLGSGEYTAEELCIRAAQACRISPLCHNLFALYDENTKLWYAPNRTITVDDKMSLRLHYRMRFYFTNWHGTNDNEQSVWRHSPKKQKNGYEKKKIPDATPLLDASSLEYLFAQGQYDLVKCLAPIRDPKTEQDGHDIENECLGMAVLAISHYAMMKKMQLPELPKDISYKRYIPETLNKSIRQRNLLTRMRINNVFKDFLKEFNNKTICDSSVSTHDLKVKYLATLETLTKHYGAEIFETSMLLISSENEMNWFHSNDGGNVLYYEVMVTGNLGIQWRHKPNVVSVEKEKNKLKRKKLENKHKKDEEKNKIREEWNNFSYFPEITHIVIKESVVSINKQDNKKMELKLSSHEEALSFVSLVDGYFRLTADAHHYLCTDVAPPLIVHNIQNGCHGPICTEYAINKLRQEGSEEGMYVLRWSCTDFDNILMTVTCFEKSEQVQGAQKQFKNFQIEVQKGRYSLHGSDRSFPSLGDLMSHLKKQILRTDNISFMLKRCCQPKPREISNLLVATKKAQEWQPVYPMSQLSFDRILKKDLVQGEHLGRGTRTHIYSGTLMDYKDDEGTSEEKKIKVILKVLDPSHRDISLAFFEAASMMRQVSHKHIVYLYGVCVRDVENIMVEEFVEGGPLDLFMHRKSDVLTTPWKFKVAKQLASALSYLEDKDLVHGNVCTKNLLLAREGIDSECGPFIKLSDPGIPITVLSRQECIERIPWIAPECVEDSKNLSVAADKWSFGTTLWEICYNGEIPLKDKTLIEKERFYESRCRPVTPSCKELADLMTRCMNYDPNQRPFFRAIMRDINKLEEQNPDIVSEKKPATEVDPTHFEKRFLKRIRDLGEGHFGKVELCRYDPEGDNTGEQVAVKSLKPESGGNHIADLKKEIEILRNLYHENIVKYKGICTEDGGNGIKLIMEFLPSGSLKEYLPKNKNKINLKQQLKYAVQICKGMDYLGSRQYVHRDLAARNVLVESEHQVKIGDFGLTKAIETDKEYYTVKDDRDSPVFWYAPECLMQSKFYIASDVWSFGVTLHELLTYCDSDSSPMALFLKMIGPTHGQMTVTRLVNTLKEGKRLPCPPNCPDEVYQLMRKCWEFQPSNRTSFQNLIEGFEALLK
UniProt O60674: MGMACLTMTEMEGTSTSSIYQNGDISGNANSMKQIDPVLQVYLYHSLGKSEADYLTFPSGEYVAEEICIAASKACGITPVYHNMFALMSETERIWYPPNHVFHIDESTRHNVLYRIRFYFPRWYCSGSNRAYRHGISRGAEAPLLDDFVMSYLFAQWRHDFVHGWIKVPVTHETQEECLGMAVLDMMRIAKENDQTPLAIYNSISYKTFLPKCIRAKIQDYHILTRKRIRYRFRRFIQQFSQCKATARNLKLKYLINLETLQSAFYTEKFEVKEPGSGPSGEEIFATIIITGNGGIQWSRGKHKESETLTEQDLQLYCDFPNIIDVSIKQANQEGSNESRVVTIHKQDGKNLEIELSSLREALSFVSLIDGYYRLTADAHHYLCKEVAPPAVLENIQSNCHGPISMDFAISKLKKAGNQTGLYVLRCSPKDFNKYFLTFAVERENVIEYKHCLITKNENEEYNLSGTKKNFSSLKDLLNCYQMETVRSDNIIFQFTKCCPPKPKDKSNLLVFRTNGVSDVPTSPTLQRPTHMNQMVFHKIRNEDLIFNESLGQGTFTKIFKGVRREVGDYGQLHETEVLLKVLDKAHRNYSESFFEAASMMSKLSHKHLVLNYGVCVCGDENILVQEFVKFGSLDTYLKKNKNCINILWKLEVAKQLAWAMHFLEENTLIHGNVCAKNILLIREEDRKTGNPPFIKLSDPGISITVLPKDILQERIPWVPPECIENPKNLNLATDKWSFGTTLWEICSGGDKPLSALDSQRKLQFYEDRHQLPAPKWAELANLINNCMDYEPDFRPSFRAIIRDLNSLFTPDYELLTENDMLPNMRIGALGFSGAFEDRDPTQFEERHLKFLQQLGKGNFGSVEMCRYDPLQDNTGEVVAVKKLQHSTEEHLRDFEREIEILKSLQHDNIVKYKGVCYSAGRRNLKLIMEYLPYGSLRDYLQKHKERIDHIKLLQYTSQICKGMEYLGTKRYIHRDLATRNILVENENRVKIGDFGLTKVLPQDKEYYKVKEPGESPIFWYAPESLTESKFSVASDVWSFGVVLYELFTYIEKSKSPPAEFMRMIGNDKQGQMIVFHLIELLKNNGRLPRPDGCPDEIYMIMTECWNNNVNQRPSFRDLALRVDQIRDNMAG

In ChEMBL document CHEMBL4028908, “The Discovery of 3-((4-Chloro-3-methoxyphenyl)amino)-1-((3R,4S)-4-cyanotetrahydro-2H-pyran-3-yl)-1H-pyrazole-4-carboxamide, a Highly Ligand Efficient and Efficacious Janus Kinase 1 Selective Inhibitor with Favorable Pharmacokinetic Properties” (J Med Chem, 2017):

Tests used:
[1] = molecular target: T1, Tyrosine-protein kinase JAK1 (Homo sapiens, UniProt P23458)
[2] = molecular target: T1, Tyrosine-protein kinase JAK1; remark: listed apart in the source
[3] = molecular target: T2, Tyrosine-protein kinase JAK2 (Homo sapiens, UniProt O60674)
[4] = molecular target: T2, Tyrosine-protein kinase JAK2; remark: listed apart in the source

IC50 [1]	IC50 [2]	IC50 [3]	IC50 [4]	Compound
1.2 nM	–	–	–	N#C[C@H]1C[C@@H](O)CC[C@@H]1n1cc(C(N)=O)c(Nc2ccc(Cl)cc2)n1
–	–	3 nM	209 nM	N#C[C@H]1CCOC[C@@H]1n1cc(C(N)=O)c(Nc2ccccc2)n1

Continued, compound first:

Compound	IC50 [1]	IC50 [2]	IC50 [3]	IC50 [4]
N#C[C@H]1C[C@@H](N2CCC2)CC[C@@H]1n1cc(C(N)=O)c(Nc2ccc([C@H](O)C(F)(F)F)cc2)n1	0.3 nM	–	–	–
N#C[C@H]1CCOC[C@@H]1n1cc(C(N)=O)c(Nc2ccnc(F)c2)n1	0.24 nM	42 nM	–	–
N#C[C@H]1CCCC[C@@H]1n1cc(C(N)=O)c(Nc2ccccc2)n1	3 nM	–	–	–
N#C[C@H]1CCOC[C@@H]1n1cc(C(N)=O)c(Nc2ccc([C@H](O)C(F)(F)F)cc2)n1	0.05 nM	14 nM	0.47 nM	48 nM
N#C[C@H]1CCOC[C@@H]1n1cc(C(N)=O)c(Nc2ccc(Cl)cc2)n1	–	–	1.5 nM	140 nM
CN([C@H]1CC[C@H](n2cc(C(N)=O)c(Nc3ccc(Cl)cc3)n2)[C@@H](C#N)C1)C1(C)COC1	0.6 nM	–	–	–
